{"sequences": {"note": "Amino acid sequences for entries named in this document (tags omitted).", "UniProt P03372, whole entry": "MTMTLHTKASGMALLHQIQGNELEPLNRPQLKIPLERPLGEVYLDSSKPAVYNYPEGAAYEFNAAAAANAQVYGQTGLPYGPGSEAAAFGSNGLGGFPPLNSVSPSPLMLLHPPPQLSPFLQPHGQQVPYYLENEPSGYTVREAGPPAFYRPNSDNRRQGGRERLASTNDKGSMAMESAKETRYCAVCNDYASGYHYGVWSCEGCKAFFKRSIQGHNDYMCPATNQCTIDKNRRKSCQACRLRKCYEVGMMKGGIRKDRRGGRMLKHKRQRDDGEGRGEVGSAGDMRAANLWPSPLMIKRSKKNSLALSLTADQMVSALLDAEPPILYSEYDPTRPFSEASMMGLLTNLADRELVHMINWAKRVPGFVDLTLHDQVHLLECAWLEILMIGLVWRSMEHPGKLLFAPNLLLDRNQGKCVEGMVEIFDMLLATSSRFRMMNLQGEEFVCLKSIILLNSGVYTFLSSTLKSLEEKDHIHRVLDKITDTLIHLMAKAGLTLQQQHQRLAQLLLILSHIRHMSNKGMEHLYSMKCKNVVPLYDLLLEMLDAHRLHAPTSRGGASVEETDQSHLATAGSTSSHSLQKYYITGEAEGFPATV", "UniProt P11511, whole entry": "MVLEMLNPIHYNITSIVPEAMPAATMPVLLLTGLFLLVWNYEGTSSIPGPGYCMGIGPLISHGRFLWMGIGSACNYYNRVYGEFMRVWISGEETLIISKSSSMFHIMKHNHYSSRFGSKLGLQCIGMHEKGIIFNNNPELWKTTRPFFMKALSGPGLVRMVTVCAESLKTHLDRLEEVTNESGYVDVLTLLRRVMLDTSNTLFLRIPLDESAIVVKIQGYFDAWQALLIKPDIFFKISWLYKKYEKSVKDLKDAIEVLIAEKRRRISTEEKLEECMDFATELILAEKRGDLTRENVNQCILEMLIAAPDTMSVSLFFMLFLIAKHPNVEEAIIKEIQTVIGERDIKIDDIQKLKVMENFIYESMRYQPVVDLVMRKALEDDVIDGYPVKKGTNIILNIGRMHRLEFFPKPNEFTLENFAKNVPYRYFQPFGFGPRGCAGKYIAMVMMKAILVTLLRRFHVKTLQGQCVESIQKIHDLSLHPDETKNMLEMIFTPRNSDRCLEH", "UniProt P37231, whole entry": "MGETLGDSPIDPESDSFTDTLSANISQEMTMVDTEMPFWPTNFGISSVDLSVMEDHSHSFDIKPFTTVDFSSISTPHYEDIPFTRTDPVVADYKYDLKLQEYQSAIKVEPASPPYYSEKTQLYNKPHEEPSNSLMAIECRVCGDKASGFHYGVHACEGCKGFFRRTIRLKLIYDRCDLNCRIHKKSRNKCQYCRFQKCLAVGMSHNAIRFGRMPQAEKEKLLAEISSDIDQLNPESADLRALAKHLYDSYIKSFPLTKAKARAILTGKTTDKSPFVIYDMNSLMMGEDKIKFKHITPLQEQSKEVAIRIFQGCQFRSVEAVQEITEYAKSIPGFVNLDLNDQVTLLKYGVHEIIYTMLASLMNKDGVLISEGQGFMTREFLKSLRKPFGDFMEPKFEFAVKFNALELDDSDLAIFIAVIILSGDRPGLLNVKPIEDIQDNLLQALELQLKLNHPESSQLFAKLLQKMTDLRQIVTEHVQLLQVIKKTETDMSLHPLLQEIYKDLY", "UniProt Q03181, whole entry": "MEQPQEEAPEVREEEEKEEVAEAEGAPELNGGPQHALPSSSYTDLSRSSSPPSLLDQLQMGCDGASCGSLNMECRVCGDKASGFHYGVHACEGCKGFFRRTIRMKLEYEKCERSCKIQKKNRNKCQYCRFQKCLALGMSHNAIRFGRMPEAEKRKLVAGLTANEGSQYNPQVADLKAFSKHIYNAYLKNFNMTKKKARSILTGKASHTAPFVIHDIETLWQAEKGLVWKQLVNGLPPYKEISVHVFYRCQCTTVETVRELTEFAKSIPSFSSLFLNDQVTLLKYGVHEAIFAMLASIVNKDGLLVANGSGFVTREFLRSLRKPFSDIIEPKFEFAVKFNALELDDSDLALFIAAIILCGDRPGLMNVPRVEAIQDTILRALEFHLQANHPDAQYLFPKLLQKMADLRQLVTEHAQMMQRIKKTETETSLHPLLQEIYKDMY"}, "source": "PubChem BioAssay (Tox21)", "key": {"[1]": {"experiment": "qHTS assay to identify small molecule antagonists of the estrogen receptor alpha (ER-alpha) signaling pathway - cell viability counter screen (AID 743074; calls by dose curve; note: nearly all actives have a fitted effect of over 45% in size; note: potency is the fitted concentration of half-maximal effect)"}, "[2]": {"target": "Estrogen receptor (Homo sapiens) (UniProt P03372)", "experiment": "qHTS assay to identify small molecule agonists of the estrogen receptor alpha (ER-alpha) signaling pathway (AID 743075; calls by dose curve)", "conditions": "HEK293 ER-alpha-UAS-bla, beta-lactamase FRET ratio, 18 h"}, "[3]": {"target": "Estrogen receptor (Homo sapiens) (UniProt P03372)", "experiment": "qHTS assay to identify small molecule agonists of the estrogen receptor alpha (ER-alpha) signaling pathway using the BG1 cell line (AID 743079); note: nearly all actives have a fitted effect of over 20% in size", "conditions": "BG1Luc4E2 cells, ERE-luciferase agonist, 22 h"}, "[4]": {"experiment": "qHTS assay to identify small molecule antagonists of the estrogen receptor alpha (ER-alpha) signaling pathway using the BG1 cell line (AID 743080; calls by dose curve;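 note: BG1 cells stimulated with 17beta-estradiol alongside compound; nearly all actives have a fitted effect of over 25% in size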)", "conditions": "BG1Luc4E2 ERE-luciferase antagonist mode, luminescence", "procedure,_shortened": "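BG1Luc4E2, endogenous ER-alpha, 4xERE-luc; 5 d charcoal-stripped FBS, phenol red free; 24 h plating; cpd + 17beta-estradiol 21.5 h, 37 C/5% CO2; CellTiter-Fluor viability 30 min, then ONE-Glo luciferase 30 min RT.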"}, "[5]": {"experiment": "qHTS assay to identify small molecule antagonists of the estrogen receptor alpha (ER-alpha) signaling pathway using the BG1 cell line - cell viability counter screen (AID 743081);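 note: compound given together with 17beta-estradiol as the ER stimulus; nearly all actives have a fitted effect of over 45% in size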", "conditions": "BG1Luc4E2 viability, CellTiter-Fluor, 22 h"}, "Aromatase (Homo sapiens)": {"target": "Aromatase (Homo sapiens) (UniProt P11511)", "experiment": "qHTS assay to identify aromatase inhibitors (AID 743083); note: nearly all actives have a fitted effect of over 55% in size"}, "[6]": {"experiment": "qHTS assay to identify aromatase inhibitors - cell viability counter screen (AID 743084);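 note: cells stimulated with testosterone during compound exposure; nearly all actives have a fitted effect of over 55% in size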"}, "[7]": {"experiment": "qHTS assay to identify small molecule that activate the aryl hydrocarbon receptor (AhR) signaling pathway - cell viability counter screen (AID 743086); note: nearly all actives have a fitted effect of over 45% in size", "procedure,_shortened": "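Cytotoxicity counter screen: CellTiter-Fluor signal (30 min, 37 C) in 4000 HepG2 cells/well carrying the DRE-luciferase reporter, following 24 h compound exposure at 37 C.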"}, "[8]": {"target": "Peroxisome proliferator-activated receptor gamma (Homo sapiens) (UniProt P37231)", "experiment": "qHTS assay to identify small molecule agonists of the peroxisome proliferator-activated receptor gamma (PPARg) signaling pathway (AID 743094; active = well fitted activation curve with a large enough effect in the signal ratio in the repeat runs, not every such curve was filed as active; the % refers to the signal ratio)", "conditions": "HEK293H PPARg-UAS-bla, beta-lactamase FRET ratio, 17 h", "procedure,_shortened": "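Following 5 h plating at 37C, PPARg-bla HEK293H cells receive compound or DMSO for 17 h; fluorescence intensity is recorded after LiveBLAzer B/G loading for 1 h at room temperature.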"}, "[9]": {"target": "Peroxisome proliferator-activated receptor gamma (Homo sapiens) (UniProt P37231)", "experiment": "qHTS assay to identify small molecule antagonists of the peroxisome proliferator-activated receptor gamma (PPARg) signaling pathway (AID 743191; calls by dose curve; note: nearly all actives have a fitted effect of over 30% in size)", "conditions": "HEK293H PPARg-UAS-bla, beta-lactamase ratio, antagonist, 17 h; at 62.6 µM (top of the series) unless noted", "procedure,_shortened": "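Beta-lactamase reporter under UAS control in HEK293H PPARg-bla cells; compound treatment 17 h at 37C. Read-out: fluorescence intensity after 1 h room-temperature incubation with LiveBLAzer B/G FRET substrate.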"}, "[10]": {"experiment": "qHTS assay to identify small molecule antagonists of the peroxisome proliferator-activated receptor gamma (PPARg) signaling pathway - cell viability counter screen (AID 743194); note: nearly all actives have a fitted effect of over 55% in size", "conditions": "PPARg-bla HEK293H viability, CellTiter-Glo luminescence, 17 h, co-treated with 50 nM rosiglitazone", "procedure,_shortened": "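Viability was measured as CellTiter-Glo luminescence in GeneBLAzer PPARg UAS-bla HEK293H cells. These cells had been exposed 17 h at 37 C to compounds together with rosiglitazone at 50 nM final, with the beta-lactamase readout taken in the same wells.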"}, "[11]": {"experiment": "qHTS assay for small molecule agonists of the antioxidant response element (ARE) signaling pathway (AID 743202; active = well fitted activation curve with a large enough effect in the signal ratio in the repeat runs, not every such curve was filed as active; the % refers to the signal ratio)", "conditions": "HepG2 ARE-bla reporter, beta-lactamase FRET, 16 h", "procedure,_shortened": "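An ARE-responsive beta-lactamase gene stably integrated in HepG2 cells serves as reporter. After 5 h plating and 16 h compound incubation at 37 C, fluorescence of the B/G FRET substrate was measured.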"}, "[12]": {"experiment": "qHTS assay for small molecule agonists of the antioxidant response element (ARE) signaling pathway - cell viability counter screen (AID 743203; calls by dose curve; note: nearly all actives have a fitted effect of over 55% in size)", "conditions": "ARE-bla HepG2 viability, CellTiter-Glo luminescence, 16 h", "procedure,_shortened": "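Compounds in DMSO were pinned onto ARE-bla HepG2 cells plated 5 hrs earlier at 2,000 cells/well. Sixteen hours later at 37C/5% CO2, CellTiter-Glo was added and luminescence measured after 30 min at room temperature.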"}, "[13]": {"experiment": "qHTS assay for small molecule activators of the heat shock response signaling pathway - cell viability counter screen (AID 743209); note: nearly all actives have a fitted effect of over 50% in size", "conditions": "HSE-bla HeLa viability, CellTiter-Glo luminescence, 5 h", "procedure,_shortened": "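Counter screen for cytotoxicity in HeLa HSE-bla reporter cells. Treatment was 5 h at 37 C; viability was detected by luminescent ATP assay (CellTiter-Glo) in the same wells as the beta-lactamase read.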"}, "[14]": {"experiment": "qHTS assay for small molecule activators of the heat shock response signaling pathway (AID 743210; active = well fitted activation curve with a large enough effect in the signal ratio in the repeat runs, with a control signal flat, not every such curve was filed as active; the % refers to the signal ratio)", "conditions": "HeLa HSE-bla reporter, beta-lactamase ratio, 5 h", "procedure,_shortened": "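In HSE-bla HeLa cells, 5 h compound incubation (37 C) precedes addition of LiveBLAzer B/G substrate; after 2.5 h at room temperature, fluorescence intensity indicates reporter induction.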"}, "[15]": {"experiment": "qHTS assay to identify small molecule agonists of the peroxisome proliferator-activated receptor delta (PPARd) signaling pathway - cell viability counter screen (AID 743211); note: nearly all actives have a fitted effect of over 55% in size", "conditions": "PPARd-bla HEK293H viability, CellTiter-Glo luminescence, 17 h", "procedure,_shortened": "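Multiplexed format: after the 2 h room-temperature LiveBLAzer B/G FRET step, CellTiter-Glo was added to the same wells. Luminescence after 30 min gave cell viability; compound exposure was 17 h at 37C.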"}, "[16]": {"target": "Peroxisome proliferator-activated receptor delta (Homo sapiens) (UniProt Q03181)", "experiment": "qHTS assay to identify small molecule agonists of the peroxisome proliferator-activated receptor delta (PPARd) signaling pathway (AID 743212; calls by dose curve)", "conditions": "HEK293H PPARd-UAS-bla, beta-lactamase FRET ratio, 17 h", "procedure,_shortened": "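HEK293H UAS-bla reporter cells, human PPARd system; compounds delivered in DMSO after 5 h plating, then at 37 C. Beta-lactamase FRET read, 2 h RT substrate step.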"}, "[17]": {"experiment": "qHTS assay to identify small molecule antagonists of the peroxisome proliferator-activated receptor delta (PPARd) signaling pathway - cell viability counter screen (AID 743213); note: nearly all actives have a fitted effect of over 50% in size", "conditions": "PPARd-bla HEK293H viability, CellTiter-Glo luminescence, 17 h", "procedure,_shortened": "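Luminescence from CellTiter-Glo, added after the bla read and incubated 30 min at room temperature, gives viability of HEK293H PPARd-bla cells exposed to compounds for 17 h at 37 C with 300 nM L165041.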"}, "[18]": {"target": "Peroxisome proliferator-activated receptor delta (Homo sapiens) (UniProt Q03181)", "experiment": "qHTS assay to identify small molecule antagonists of the peroxisome proliferator-activated receptor delta (PPARd) signaling pathway (AID 743215; active = well fitted inhibition curve with a large enough effect in the signal ratio in the repeat runs, not every such curve was filed as active; the % refers to the signal ratio)", "conditions": "HEK293H PPARd-UAS-bla, beta-lactamase FRET ratio, antagonist, 17 h", "procedure,_shortened": "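With L165041 present at 300 nM final, compounds were incubated 17 h at 37 C on PPARd UAS-bla HEK293H cells. A FRET-based beta-lactamase substrate was then applied for 2 h at room temperature and fluorescence intensity recorded.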"}}, "note": "“And” between values parts separate entries of the source, which are not always exact repeats. Identical values can stand only once. Only a part is listed here, and it is no random draw. Records with an inconclusive call do not appear. Where a structure was tested more than once in an assay, its records may differ in their call. The source made the active and inactive calls. Unless noted, calls come from the whole dose curve; as a rule, active = well fitted curve in the direction sought with a large enough effect in the repeat runs; inconclusive = weak or mixed curves; inactive = no such curve, though single readings can be large; an effect the other way counts as inactive or inconclusive. % is set by controls: 0 for no effect and ±100 for the full control effect."}
{"smiles": "ClCCOP(OCCCl)OCCCl", "values": [{"measurement": "Potency", "setting": "[1]", "value": "inactive and active: 21.9 µM"}, {"measurement": "activation", "setting": "[2]; at 70.1 µM (top of the series)", "value": "inactive: -1.23%"}, {"measurement": "activation", "setting": "[2]; at 79.1 µM (top of the series)", "value": "inactive: -0.215%"}, {"measurement": "activation", "setting": "[3]; at 70.3 µM (top of the series)", "value": "inactive: 8.91%"}, {"measurement": "activation", "setting": "[3]; at 95 µM (top of the series)", "value": "inactive: -2.77%"}, {"measurement": "activity change, negative = inhibition", "setting": "[4]; at 70.3 µM (top of the series)", "value": "inactive: 3.58%"}, {"measurement": "activity change, negative = inhibition", "setting": "[4]; at 95 µM (top of the series)", "value": "inactive: 3.62%"}, {"measurement": "activity change, negative = cytotoxicity", "setting": "[5]; at 70.3 µM (top of the series)", "value": "inactive: 1.01%"}, {"measurement": "activity change, negative = cytotoxicity", "setting": "[5]; at 95 µM (top of the series)", "value": "inactive: -13.5%"}, {"measurement": "Potency", "setting": "Aromatase (Homo sapiens)", "value": "inactive"}, {"measurement": "Potency", "setting": "[6]", "value": "inactive"}, {"measurement": "Potency", "setting": "[7]", "value": "inactive"}, {"measurement": "activation", "setting": "[8]; at 57 µM (top of the series)", "value": "inactive: 0.173%"}, {"measurement": "activation", "setting": "[8]; at 78.9 µM (top of the series)", "value": "inactive: -0.0589%"}, {"measurement": "ratio activity, negative = inhibition", "setting": "[9]", "value": "inactive: 4.02% [at 81.1 µM]"}, {"measurement": "activity change, negative = cytotoxicity", "setting": "[10]; at 62.6 µM (top of the series)", "value": "inactive: 5.82%"}, {"measurement": "activity change, negative = cytotoxicity", "setting": "[10]; at 81.1 µM (top of the series)", "value": "inactive: 16.8%"}, {"measurement": "activation", "setting": "[11]; at 73.3 µM (top of the series)", "value": "inactive: -1.05%"}, {"measurement": "activation", "setting": "[11]; at 94.8 µM (top of the series)", "value": "inactive: -1.66%"}, {"measurement": "viability change, negative = cytotoxic", "setting": "[12]; at 73.3 µM (top of the series)", "value": "inactive: 11.4%"}, {"measurement": "viability change, negative = cytotoxic", "setting": "[12]; at 94.8 µM (top of the series)", "value": "inactive: -1.2%"}, {"measurement": "activity change, negative = cytotoxicity", "setting": "[13]; at 62.6 µM (top of the series)", "value": "inactive: 0.645%"}, {"measurement": "activity change, negative = cytotoxicity", "setting": "[13]; at 81.1 µM (top of the series)", "value": "inactive: -1.6%"}, {"measurement": "activation", "setting": "[14]; at 62.6 µM (top of the series)", "value": "inactive: 0.296%"}, {"measurement": "activation", "setting": "[14]; at 81.1 µM (top of the series)", "value": "inactive: -0.657%"}, {"measurement": "activity change, negative = cytotoxicity", "setting": "[15]; at 62.6 µM (top of the series)", "value": "inactive: -1.02%"}, {"measurement": "activity change, negative = cytotoxicity", "setting": "[15]; at 81.1 µM (top of the series)", "value": "inactive: 15.4%"}, {"measurement": "activation", "setting": "[16]; at 62.6 µM (top of the series)", "value": "inactive: 0.655%"}, {"measurement": "activation", "setting": "[16]; at 81.1 µM (top of the series)", "value": "inactive: -0.769%"}, {"measurement": "viability change, negative = cytotoxic", "setting": "[17]; at 62 µM (top of the series)", "value": "inactive: 9.56%"}, {"measurement": "viability change, negative = cytotoxic", "setting": "[17]; at 80.4 µM (top of the series)", "value": "inactive: 0.58%"}, {"measurement": "ratio activity, negative = inhibition", "setting": "[18]; at 62 µM (top of the series)", "value": "inactive: 11.2%"}, {"measurement": "ratio activity, negative = inhibition", "setting": "[18]; at 80.4 µM (top of the series)", "value": "inactive: 0.55%"}]}
{"smiles": "CCOC(=O)N1CCC(=O)CC1", "values": [{"measurement": "activity change, negative = cytotoxicity", "setting": "[10]; at 62.6 µM (top of the series)", "value": "inactive: 5.21%"}, {"measurement": "activation", "setting": "[11]; at 73.3 µM (top of the series)", "value": "inactive: -2.66%"}, {"measurement": "viability change, negative = cytotoxic", "setting": "[12]; at 73.3 µM (top of the series)", "value": "inactive: -2.84%"}, {"measurement": "activity change, negative = cytotoxicity", "setting": "[13]; at 62.6 µM (top of the series)", "value": "inactive: -1%"}, {"measurement": "activation", "setting": "[14]; at 62.6 µM (top of the series)", "value": "inactive: 1.2%"}, {"measurement": "activity change, negative = cytotoxicity", "setting": "[15]; at 62.6 µM (top of the series)", "value": "inactive: 3.63%"}, {"measurement": "activation", "setting": "[16]; at 62.6 µM (top of the series)", "value": "inactive: 1.95%"}, {"measurement": "viability change, negative = cytotoxic", "setting": "[17]; at 62 µM (top of the series)", "value": "inactive: -9.58%"}, {"measurement": "ratio activity, negative = inhibition", "setting": "[18]; at 62 µM (top of the series)", "value": "inactive: -0.649%"}]}
